Test results reported in ChEMBL document CHEMBL3758107, “Lead optimization of the VU0486321 series of mGlu(1) PAMs. Part 2: SAR of alternative 3-methyl heterocycles and progress towards an in vivo tool” (Bioorg Med Chem Lett, 2016).

Species on record: Homo sapiens
Experiment: Selectivity ratio of EC50 for human mGlu5 receptor to EC50 for human mGlu1 receptor

Q: How did the Ratio EC50 turn out when Cc1ccoc1C(=O)Nc1ccc(N2C(=O)c3cccc(C)c3C2=O)cc1F was run?
A: Its Ratio EC50 is greater than 450.
